From paper PMC3420880

Columns and labels:
[1] = target: wild-type mouse thyroid stimulating hormone receptor, TSHR(W) (mouse) (UniProt P47750)
[2] = target: TSHR(W) tagged with eCFP or eYFP at the C-terminal (mouse) (UniProt P47750)

cAMP production of HEK 293 cells transfected with pcDNA3-TSHR(W) after 30 min with TSH; EC50 of TSH (untagged receptor) [1]: 35 µU/ml
cAMP production of HEK 293 cells transfected with pcDNA-TSHR(W)-eCFP after 30 min with TSH; EC50 of TSH (tagged receptor) [2]: 18 µU/ml
Substance: bovine thyroid stimulating hormone (TSH) (from UniProt P01217 25-120; P01223 21-132) (ligand)
